The chains behind the UniProt entries cited, without tags or fusion partners. Where a name states a change or a piece, a line headed by the entry shows the natural chain unless it says otherwise.
UniProt P11229: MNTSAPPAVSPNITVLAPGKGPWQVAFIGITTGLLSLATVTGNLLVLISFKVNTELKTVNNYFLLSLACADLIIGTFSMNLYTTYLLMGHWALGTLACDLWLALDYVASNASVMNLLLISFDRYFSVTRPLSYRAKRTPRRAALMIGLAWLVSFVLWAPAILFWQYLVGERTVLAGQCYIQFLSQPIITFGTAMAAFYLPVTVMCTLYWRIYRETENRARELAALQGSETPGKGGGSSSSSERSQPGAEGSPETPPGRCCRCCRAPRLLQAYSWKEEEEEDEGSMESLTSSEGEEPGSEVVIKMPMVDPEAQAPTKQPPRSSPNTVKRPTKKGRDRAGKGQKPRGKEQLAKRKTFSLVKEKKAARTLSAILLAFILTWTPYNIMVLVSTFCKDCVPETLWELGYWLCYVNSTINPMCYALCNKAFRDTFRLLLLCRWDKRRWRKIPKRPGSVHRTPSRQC

According to patent US8741930B2 (dated 2014):

Biological target: human recombinant muscarinic M-1 receptors (Homo sapiens, UniProt P11229)
Assay: biochemical

Molecule `O=C1Cc2ccccc2C(=C2CCNCC2)c2ccsc21` (racemic) [Norketotifen] has an IC50 of 1.44 µM.
